Results: PubChem BioAssay AID1053175 (ICCB-Longwood Screening Facility, Harvard Medical School, 2014)
This is a selection; strong and weak results do not stand in their true shares. Some of these compounds have results that are not shown, active ones among them. Calls of active or inactive are those of the source.

Assay: antibacterial activity against Escherichia coli – OD600, primary screen (AID 1053175)
Details: Escherichia coli growth, OD600, 23 h; hits give low values

| Structure (SMILES) | OD600 absorbance |
| --- | --- |
| Cc1ccc(C(=O)NCC2(N3CCCCC3)CCCCC2)cc1 | inactive: 0.674 |
| COc1cc(SC)ccc1C(=O)NCC1(N(C)C)CCCCC1 | inactive: 0.648 |
| CN1[C@@H]2CC[C@H]1CC(OC(=O)C(O)(c1ccccc1)c1ccccc1)C2 (stereo partly drawn) | inactive: 0.683 |
| O=C(NCC1(N2CCCCC2)CCCCC1)c1cc([N+](=O)[O-])ccc1Cl | inactive: 0.667 |
| COc1ccc(C(=O)NCC2(N(C)C)CCCCC2)cc1 | inactive: 0.67 |
| O=C(NCC1(N2CCCCC2)CCCCC1)c1cccc(Br)c1 | inactive: 0.67 |
| CCN1CCCC(OC(=O)C2(O)c3ccccc3C=Cc3ccccc32)C1 (stereo not drawn) | inactive: 0.658 |
| Cc1cc(C(=O)NCC2(N3CCCCC3)CCCCC2)ccc1[N+](=O)[O-] | inactive: 0.659 |
| O=C(NCC1(N2CCCCC2)CCCCC1)c1cc(F)c(F)cc1Cl | inactive: 0.695 |
| CN(C)CCOC(=O)C(O)(c1ccccc1)C1CCCCC1 (stereo not drawn) | inactive: 0.7 |
| CN(C)c1ccc(C(=O)NCC2(N(C)C)CCCCC2)cc1 | inactive: 0.682 |
| CN(C)C1CCCC1OC(=O)C(O)(c1ccccc1)c1ccccc1 (stereo not drawn) | inactive: 0.682 |
| Cc1ccccc1C(=O)NCC1(N2CCCCC2)CCCCC1 | inactive: 0.636 |
| O=C(NCC1(N2CCCCC2)CCCCC1)c1cccc(Cl)c1 | inactive: 0.617 |
| COc1ccc(Cl)cc1C(=O)NCC1(N(C)C)CCCCC1 | inactive: 0.716 |
| COc1cccc(C(=O)NCC2(N3CCCCC3)CCCCC2)c1 | inactive: 0.708 |
| COc1cc(C(=O)NCC2(N(C)C)CCCCC2)c([N+](=O)[O-])cc1OC | inactive: 0.632 |
| CN(C)C1(CNC(=O)c2ccc(Br)cc2)CCCCC1 | inactive: 0.663 |
| O=C(OCCN1CCCC1)C(O)(c1ccccc1)c1ccccc1 | inactive: 0.672 |
| CC(C)Oc1ccc(C(=O)NCC2(N(C)C)CCCCC2)cc1 | inactive: 0.681 |
| CN(C)c1cccc(C(=O)NCC2(N(C)C)CCCCC2)c1 | inactive: 0.81 |
| COc1ccc(Br)c(C(=O)NCC2(N3CCCCC3)CCCCC2)c1 | inactive: 0.703 |
| O=C(OC1CN2CCC1CC2)C(CO)(c1ccccc1)c1ccccc1 (stereo not drawn) | inactive: 0.625 |
